Antibody variant affinities, Ab-14 light chain, assay 1

Data: MIT Lincoln Laboratory AlphaSeq set, Engelhart et al. 2022, doi:10.1038/s41597-022-01779-4, as distributed in FLAb.

The target is the same throughout: PDVDLGDISGINAS, from the HR2 region of SARS-CoV-2 spike.

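The parent was found by panning a naive human phage display library on the peptide. Variants in AAYL50 differ from the parent at up to three CDR positions; double and triple changes were sampled at random. AlphaSeq pools MATa yeast showing the antibodies with MATalpha yeast showing the peptide. Pairs that bind mate more often; barcode pairs of the diploids are counted by sequencing. The ratio of observed to expected reads was calibrated, replicate by replicate, on BCL2-family standards whose Kd was known from biolayer interferometry. The assay was run in three technical replicates.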

Ab-14 is the parent antibody, in scFv form: VH, then a 15-residue (Gly4Ser)3 linker, then VL. The heavy chain is unchanged in all variants.
VH: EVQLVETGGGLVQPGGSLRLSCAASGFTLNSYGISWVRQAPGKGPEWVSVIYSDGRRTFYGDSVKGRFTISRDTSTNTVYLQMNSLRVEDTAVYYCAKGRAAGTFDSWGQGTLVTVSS
VL: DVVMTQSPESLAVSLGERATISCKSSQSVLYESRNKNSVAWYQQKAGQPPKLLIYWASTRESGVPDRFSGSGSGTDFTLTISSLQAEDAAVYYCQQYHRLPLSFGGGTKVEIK

Each variant is given by its three light chain CDRs, as the data file delimits them; those of the parent are KSSQSVLYESRNKNSVA, WASTRES, QQYHRLPLS.
The Kd shown is the geometric mean over detected replicates; a lower Kd is a better binder.
"no signal" marks a missing value. The strain was present, yet no cells mated with the target were sequenced in any replicate, which points to weak or no binding.

{"CDR-L1": "KSSQSVLYQSCNKNSVF", "CDR-L2": "WASTRES", "CDR-L3": "QQYHRLPLS", "Kd": "33 µM", "seen in": "2/3", "empty controls": "5/9"}
{"CDR-L1": "KCSQSVLYESRNKNSVA", "CDR-L2": "WASTRHS", "CDR-L3": "QQYHRLPLS", "Kd": "83 µM", "seen in": "2/3", "empty controls": "0/9"}
{"CDR-L1": "KSSQSVLYEWRNKNSVA", "CDR-L2": "SAGTRES", "CDR-L3": "QQYHRLPLS", "Kd": "2.2 nM", "seen in": "3/3", "empty controls": "2/9"}
{"CDR-L1": "KSSQSEFYESRNINSVA", "CDR-L2": "WASTRES", "CDR-L3": "QQYHRLPLS", "Kd": "no signal", "seen in": "0/3", "empty controls": "1/9"}
{"CDR-L1": "KSSQSVLYESWNKNSWA", "CDR-L2": "WASTRES", "CDR-L3": "QQYHRLPLS", "Kd": "120 µM", "seen in": "3/3", "empty controls": "7/9"}
{"CDR-L1": "ISSQSVLYISRNKNSVA", "CDR-L2": "WASTRES", "CDR-L3": "QQYHRLPLS", "Kd": "no signal", "seen in": "0/3", "empty controls": "0/9"}
{"CDR-L1": "KSSQSVFYESRNHNSVA", "CDR-L2": "WASQRES", "CDR-L3": "QQYHRLPLS", "Kd": "7.5 nM", "seen in": "3/3", "empty controls": "3/9"}
{"CDR-L1": "KSSQSVLYESLNKWSVI", "CDR-L2": "WASTRES", "CDR-L3": "QQYHRLPLS", "Kd": "1.0 µM", "seen in": "1/3", "empty controls": "3/9"}
{"CDR-L1": "KSSQSVLFESRNKNSVA", "CDR-L2": "RASTRES", "CDR-L3": "QQYHRLDLS", "Kd": "no signal", "seen in": "0/3", "empty controls": "0/9"}
{"CDR-L1": "KSSQSVLYESRNGNSVA", "CDR-L2": "WASTRES", "CDR-L3": "QQYIRWPLS", "Kd": "54 nM", "seen in": "3/3", "empty controls": "1/9"}
{"CDR-L1": "KSSQKVLYESRNKNSVA", "CDR-L2": "WASTRES", "CDR-L3": "QDYRRLPLS", "Kd": "14 nM", "seen in": "3/3", "empty controls": "0/9"}
{"CDR-L1": "KSSQSVLYESRNKNSVA", "CDR-L2": "WAYTRES", "CDR-L3": "QQYHTLPLQ", "Kd": "1.2 µM", "seen in": "3/3", "empty controls": "2/9"}
{"CDR-L1": "KSPQSVLYESRNKNSVA", "CDR-L2": "WASTRES", "CDR-L3": "AQYHRLPLH", "Kd": "630 nM", "seen in": "3/3", "empty controls": "2/9"}
{"CDR-L1": "KSSQSVLYERRPKNSVA", "CDR-L2": "WASTRMS", "CDR-L3": "QQYHRLPLS", "Kd": "340 nM", "seen in": "3/3", "empty controls": "0/9"}
{"CDR-L1": "KSLQSVPYESRNKNSVA", "CDR-L2": "WASSRES", "CDR-L3": "QQYHRLPLS", "Kd": "81 nM", "seen in": "3/3", "empty controls": "0/9"}
{"CDR-L1": "KDSQSVLYTSRCKNSVA", "CDR-L2": "WASTRES", "CDR-L3": "QQYHRLPLS", "Kd": "320 nM", "seen in": "3/3", "empty controls": "4/9"}
{"CDR-L1": "KSSWSVLYEFRNKNSVA", "CDR-L2": "WASTAES", "CDR-L3": "QQYHRLPLS", "Kd": "680 nM", "seen in": "1/3", "empty controls": "0/9"}
{"CDR-L1": "KSSQSVYIESNNKNSVA", "CDR-L2": "WASTRES", "CDR-L3": "QQYHRLPLS", "Kd": "6.3 nM", "seen in": "3/3", "empty controls": "0/9"}
{"CDR-L1": "KPSQSVLYESRNKNEAA", "CDR-L2": "WASTRES", "CDR-L3": "QQYHRLPLS", "Kd": "5.5 µM", "seen in": "1/3", "empty controls": "2/9"}
{"CDR-L1": "KSSQSVVYESRNKNSVA", "CDR-L2": "QASTRES", "CDR-L3": "QQYHRLPLS", "Kd": "2.3 nM", "seen in": "3/3", "empty controls": "2/9"}
{"CDR-L1": "GSSKSVLYESRNKNSVA", "CDR-L2": "WASTRES", "CDR-L3": "WQYHRLPLS", "Kd": "76 nM", "seen in": "1/3", "empty controls": "0/9"}
{"CDR-L1": "KSSQSVLYESRNKSSVA", "CDR-L2": "WASTRES", "CDR-L3": "QQYHRLALS", "Kd": "120 nM", "seen in": "3/3", "empty controls": "4/9"}
{"CDR-L1": "KSSQSVLYESRNKNSVA", "CDR-L2": "WASTRES", "CDR-L3": "QQWSRLPLY", "Kd": "530 nM", "seen in": "1/3", "empty controls": "0/9"}
{"CDR-L1": "KSSQSVLYESRNKNSVA", "CDR-L2": "WASTRES", "CDR-L3": "QWDHRLPLQ", "Kd": "no signal", "seen in": "0/3", "empty controls": "3/9"}
{"CDR-L1": "KSSQIVLYESRNKNSVA", "CDR-L2": "WASTKES", "CDR-L3": "QQVHRLPLS", "Kd": "480 nM", "seen in": "2/3", "empty controls": "1/9"}
{"CDR-L1": "KSSISVLYESRNKNSVS", "CDR-L2": "WASTRES", "CDR-L3": "QQDHRLPLS", "Kd": "17 µM", "seen in": "1/3", "empty controls": "0/9"}
{"CDR-L1": "KSSKGVLYESRNKNSVA", "CDR-L2": "WASTRES", "CDR-L3": "QQYHRLPLD", "Kd": "12 nM", "seen in": "3/3", "empty controls": "0/9"}
{"CDR-L1": "KSSQSVLYESRNKNSVA", "CDR-L2": "WANTRES", "CDR-L3": "VQYHRLPLE", "Kd": "61 µM", "seen in": "1/3", "empty controls": "2/9"}
{"CDR-L1": "NSSQSVLYESRNKNSTA", "CDR-L2": "WASTRES", "CDR-L3": "NQYHRLPLS", "Kd": "3.3 µM", "seen in": "1/3", "empty controls": "0/9"}
{"CDR-L1": "KWSQSVLYESRNKNSVA", "CDR-L2": "KASTRES", "CDR-L3": "VQYHRLPLS", "Kd": "13 nM", "seen in": "3/3", "empty controls": "6/9"}
{"CDR-L1": "KSSQSVLYESRNKCSVA", "CDR-L2": "WAKTRES", "CDR-L3": "QQYKRLPLS", "Kd": "470 nM", "seen in": "3/3", "empty controls": "4/9"}
{"CDR-L1": "KSSQSVLYESRVKNSVA", "CDR-L2": "WASTRES", "CDR-L3": "VQYHVLPLS", "Kd": "no signal", "seen in": "0/3", "empty controls": "0/9"}

The opening 5 entries, copied out:

{"CDR-L1": "KSSQSVLYQSCNKNSVF", "CDR-L2": "WASTRES", "CDR-L3": "QQYHRLPLS", "Kd": "33 µM", "seen in": "2/3", "empty controls": "5/9"}
{"CDR-L1": "KCSQSVLYESRNKNSVA", "CDR-L2": "WASTRHS", "CDR-L3": "QQYHRLPLS", "Kd": "83 µM", "seen in": "2/3", "empty controls": "0/9"}
{"CDR-L1": "KSSQSVLYEWRNKNSVA", "CDR-L2": "SAGTRES", "CDR-L3": "QQYHRLPLS", "Kd": "2.2 nM", "seen in": "3/3", "empty controls": "2/9"}
{"CDR-L1": "KSSQSEFYESRNINSVA", "CDR-L2": "WASTRES", "CDR-L3": "QQYHRLPLS", "Kd": "no signal", "seen in": "0/3", "empty controls": "1/9"}
{"CDR-L1": "KSSQSVLYESWNKNSWA", "CDR-L2": "WASTRES", "CDR-L3": "QQYHRLPLS", "Kd": "120 µM", "seen in": "3/3", "empty controls": "7/9"}

For reference, the parent read 4.4 nM as the reference entry and 48 nM as a member of this library.
Nonspecific signal, from three strains lacking the peptide, appeared in 18% of pairings of library AAYL50, centred on 15 µM (5% of these signals below 970 nM); values are not corrected for it. For each scFv, signals with the empty controls are counted beside the result.